For the assay, the target named is Beta-1 adrenergic receptor (Homo sapiens, UniProt P08588). The assay can be described thus: Compound was evaluated for its adenylyl cyclase activation at human beta-1 adrenergic receptor (AR).

`CCCCCCNC(=O)Nc1ccc(S(=O)(=O)Nc2ccc(-c3ccc(CC4NCCc5cc(O)c(O)cc54)cc3)cc2)cc1` (stereo unspecified) gave an Activation of 67%.
